Antibody variant affinities, Ab-14 heavy chain, assay 1

Values reported by Engelhart et al. 2022, doi:10.1038/s41597-022-01779-4 (FLAb copy).

Antigen: PDVDLGDISGINAS, a 14-residue peptide of the SARS-CoV-2 spike HR2 region.

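The starting antibody came from a phage panning campaign against this peptide. AAYL49 was designed without a model: most single CDR substitutions and a random sample of double and triple ones. In AlphaSeq, yeast of one mating type display the scFv and yeast of the other type display the target. After mating in shaken culture at 30 °C for 16 h, diploids were selected and their barcode pairs sequenced. The ratio of observed to expected reads was calibrated, replicate by replicate, on BCL2-family standards whose Kd was known from biolayer interferometry. Mating was done three times.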

Parent scFv Ab-14: VH joined to VL by the linker GGGGSGGGGSGGGGS. Changes lie in the heavy chain CDRs alone.
VH: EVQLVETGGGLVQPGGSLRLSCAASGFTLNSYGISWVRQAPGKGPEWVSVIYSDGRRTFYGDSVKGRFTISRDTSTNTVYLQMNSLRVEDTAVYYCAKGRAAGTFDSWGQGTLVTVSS
VL: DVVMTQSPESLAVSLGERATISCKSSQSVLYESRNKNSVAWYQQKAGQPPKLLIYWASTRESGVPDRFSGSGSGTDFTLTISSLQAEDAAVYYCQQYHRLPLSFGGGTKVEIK

Each variant's VH is given in full. Values are log10 of the apparent Kd in nM; lower means stronger binding. Averages over replicates are reported, and they cover detected replicates only. A pair that was not seen in that replicate is written "n.d."; this usually means weak binding, but a binder can also be missed. Three control strains display no target. For library AAYL49, 15% of the pairings with them gave a signal, with a median of 4.06 and one signal in twenty below 2.83, so weak values seen in few replicates may be background. Also given: how often the same scFv was detected with the empty control strains, with their mean in brackets.

| # | VH | log10 Kd (nM) by replicate | mean, log10 nM | control signals |
|---|---|---|---|---|
| 1 | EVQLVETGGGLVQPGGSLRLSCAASGFTQNSYGISWVRQAPGKGPEWVSVIYSDGDRTFYGDSVKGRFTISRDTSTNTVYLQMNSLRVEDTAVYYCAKGWAAGTFDSWGQGTLVTVSS | n.d. n.d. n.d. | n.d. | 2/9 (3.77) |
| 2 | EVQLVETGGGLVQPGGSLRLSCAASGFTLNAYGISWVRQAPGKGPEWVSVIYSDGRRTFYGDSGKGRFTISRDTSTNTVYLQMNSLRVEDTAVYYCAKGEAAGTFDSWGQGTLVTVSS | n.d. n.d. n.d. | n.d. | 0/9 |
| 3 | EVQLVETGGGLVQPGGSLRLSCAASGFTLVSYGIMWVRQAPGKGPEWVSVIYSDGRRTFYGDSVKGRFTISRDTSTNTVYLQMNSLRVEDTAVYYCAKGRAAGTFDSWGQGTLVTVSS | n.d. n.d. 2.95 | 2.95 | 2/9 (3.58) |
| 4 | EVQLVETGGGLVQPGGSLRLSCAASGFTLNSYGISWVRQAPGKGPEWVSVIYSDGRRTFYGDSDQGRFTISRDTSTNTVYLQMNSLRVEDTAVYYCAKGRAAGAFDSWGQGTLVTVSS | n.d. n.d. n.d. | n.d. | 1/9 (3.31) |
| 5 | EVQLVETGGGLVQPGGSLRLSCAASPFTLNSYGISWVRQAPGKGPEWVSVIYSDGRRTFYINSVKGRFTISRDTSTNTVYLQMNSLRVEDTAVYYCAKGRAAGTFDSWGQGTLVTVSS | 2.26 1.72 1.85 | 1.94 | 2/9 (3.56) |
| 6 | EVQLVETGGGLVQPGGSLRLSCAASGFTLNSYGIKWVRQAPGKGPEWVSVIYSDGRRWFYGDSVEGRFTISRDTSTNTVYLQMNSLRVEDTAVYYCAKGRAAGTFDSWGQGTLVTVSS | n.d. n.d. n.d. | n.d. | 2/9 (4.30) |
| 7 | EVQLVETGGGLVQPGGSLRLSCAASNFTLNSYGISWVRQAPGKGPEWVSVIYSDGRRTFYGDSVTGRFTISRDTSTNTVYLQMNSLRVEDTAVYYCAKGRSAGTFDSWGQGTLVTVSS | n.d. n.d. n.d. | n.d. | 1/9 (2.58) |
| 8 | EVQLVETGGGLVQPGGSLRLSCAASGFTLNSYGISWVRQAPGKGPEWVSVIYSDGRRTFYGDNVKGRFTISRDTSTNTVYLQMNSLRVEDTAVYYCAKLRAVGTFDSWGQGTLVTVSS | 3.96 4.13 n.d. | 4.05 | 3/9 (3.90) |
| 9 | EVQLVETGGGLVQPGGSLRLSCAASGGTLNSYGISWVRQAPGKGPEWVSVIYSDGRRTFIGDSVKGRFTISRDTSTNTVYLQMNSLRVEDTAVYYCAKGRAFGTFDSWGQGTLVTVSS | n.d. n.d. n.d. | n.d. | 0/9 |
| 10 | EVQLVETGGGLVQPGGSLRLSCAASGNTLNSYGISWVRQAPGKGPEWVSVIYSDGRRTFYGDDVTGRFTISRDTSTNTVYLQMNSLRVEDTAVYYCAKGRAAGTFDSWGQGTLVTVSS | 1.79 2.08 1.68 | 1.85 | 0/9 |
| 11 | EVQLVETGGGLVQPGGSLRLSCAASGMTLQSYGISWVRQAPGKGPEWVSVIYSDGRRTFPGDSVKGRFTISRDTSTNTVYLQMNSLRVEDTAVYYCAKGRAAGTFDSWGQGTLVTVSS | 4.72 3.17 n.d. | 3.95 | 4/9 (4.11) |
| 12 | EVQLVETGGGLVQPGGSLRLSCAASGFTLNRYGISWVRQAPGKGPEWVSVIYSDGRRTFYGDSVKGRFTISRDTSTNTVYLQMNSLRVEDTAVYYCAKGRWAGTFDIWGQGTLVTVSS | 0.56 0.92 0.97 | 0.81 | 0/9 |
| 13 | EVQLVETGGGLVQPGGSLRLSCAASGFTLNSYGISWVRQAPGKGPEWVSVIYSIGFRTFYGDSVKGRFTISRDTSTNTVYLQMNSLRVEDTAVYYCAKGRAAGTFDSWGQGTLVTVSS | n.d. n.d. n.d. | n.d. | 0/9 |
| 14 | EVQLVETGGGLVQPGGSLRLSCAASGSTLNSYGISWVRQAPGKGPEWVSVIYSDGRRTFQGDSVKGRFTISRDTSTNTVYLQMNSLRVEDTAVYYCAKGRAAGTFDSWGQGTLVTVSS | n.d. n.d. n.d. | n.d. | 0/9 |
| 15 | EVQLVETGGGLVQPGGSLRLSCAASGFTYNSYGISWVRQAPGKGPEWVSVISSDGRRTFYGDSVKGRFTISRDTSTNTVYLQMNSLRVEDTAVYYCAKGRAAGTFDNWGQGTLVTVSS | n.d. n.d. n.d. | n.d. | 0/9 |
| 16 | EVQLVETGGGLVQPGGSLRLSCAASGFTLNSYGISWVRQAPGKGPEWVSVIMSDARRTFYGDSMKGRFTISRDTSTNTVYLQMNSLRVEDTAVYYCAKGRAAGTFDSWGQGTLVTVSS | n.d. n.d. 4.38 | 4.38 | 2/9 (4.27) |
| 17 | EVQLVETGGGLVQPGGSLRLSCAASGFTLNSYGISWVRQAPGKGPEWVSVISSDGRRTFYGDSVFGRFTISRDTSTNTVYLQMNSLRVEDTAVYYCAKGRAAGTFDSWGQGTLVTVSS | n.d. n.d. n.d. | n.d. | 1/9 (3.33) |
| 18 | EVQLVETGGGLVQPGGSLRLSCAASGFTLNSYWISWVRQAPGKGPEWVSVIYPDGRRTFYGDSVKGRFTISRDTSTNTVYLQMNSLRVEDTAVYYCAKGGAAGTFDSWGQGTLVTVSS | n.d. 5.09 4.09 | 4.59 | 4/9 (3.85) |
| 19 | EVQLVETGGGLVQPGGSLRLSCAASGFTLISYGISWVRQAPGKGPEWVSDIYSDGRRTFYGDSVKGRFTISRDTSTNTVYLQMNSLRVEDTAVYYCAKGRAQGTFDSWGQGTLVTVSS | 4.50 3.19 n.d. | 3.84 | 1/9 (3.90) |

The first 3 entries again:

VH	log10 Kd (nM) by replicate	mean, log10 nM	control signals
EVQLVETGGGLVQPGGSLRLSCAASGFTQNSYGISWVRQAPGKGPEWVSVIYSDGDRTFYGDSVKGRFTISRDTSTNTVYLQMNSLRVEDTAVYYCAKGWAAGTFDSWGQGTLVTVSS	n.d. n.d. n.d.	n.d.	2/9 (3.77)
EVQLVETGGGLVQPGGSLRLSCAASGFTLNAYGISWVRQAPGKGPEWVSVIYSDGRRTFYGDSGKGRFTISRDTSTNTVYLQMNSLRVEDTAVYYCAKGEAAGTFDSWGQGTLVTVSS	n.d. n.d. n.d.	n.d.	0/9
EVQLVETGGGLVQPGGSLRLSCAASGFTLVSYGIMWVRQAPGKGPEWVSVIYSDGRRTFYGDSVKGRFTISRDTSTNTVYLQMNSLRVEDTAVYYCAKGRAAGTFDSWGQGTLVTVSS	n.d. n.d. 2.95	2.95	2/9 (3.58)

In this assay the parent's reference entry averaged 0.65; its copy inside this library read 4.11 (one replicate of three).